Laboratory results published in publication PMC12724200 (mSphere, 2025).

System: M. avium 104
Type: cell-based, Mycobacterium avium

Work on Dimethyldithiocarbamate [DMDC] yielded an MIC of 3.91 µg/mL.
